Test system: Caco-2 cells
Assay: Flux assay for cell permeability using Caco-2 cells
Conditions: for Papp (B-A): Caco-2, basal to apical, 2 hours

| SMILES | Papp (B-A) [×10⁻⁶ cm/s] | Efflux ratio (Caco-2, ratio of Papp (B-A) to Papp (A-B)) |
| --- | --- | --- |
| CC(C)(C)[C@H](c1cc(-c2cc(F)ccc2F)cn1Cc1ccccc1)N(CCCN)C(=O)CO [Example M9, N-(3-Aminopropyl)-N-{(1R)-1-[1-benzyl-4-(2,5-difluorophenyl)-1H-pyrrol-2-yl]-2,2-dimethylpropyl}-2-hydroxyacetamide] | 21.3 |  |
| CC(C)(C)[C@H](c1cc(-c2cc(F)ccc2F)cn1Cc1ccccc1)N(CCCN)C(=O)CSC[C@H](N)C(=O)O.O=C(O)C(F)(F)F.O=C(O)C(F)(F)F [Example M11, S-{2-[(3-Aminopropyl) {(1R)-1-[1-benzyl-4-(2,5-difluorophenyl)-1H-pyrrol-2-yl]-2,2-dimethylpropyl}amino]-2-oxoethyl}-L-cysteine/trifluoroacetic acid (1:2)] | 2.43 | 27.7 |
| CC(C)(C)[C@H](c1cc(-c2cc(F)ccc2F)cn1Cc1ccccc1)N(CC[C@H](N)C(=O)NCCNC(=O)CNC(=O)C(CC(=O)O)SC[C@H](N)C(=O)O)C(=O)CO (stereo partly drawn) [Example M27, 4-[(2-{[2-({(2S)-2-Amino-4-[{(1R)-1-[1-benzyl-4-(2,5-difluorophenyl)-1H-pyrrol-2-yl]-2,2-dimethylpropyl}(glycoloyl)amino]butanoyl}amino)ethyl]amino}-2-oxoethyl)amino]-3-{[(2R)-2-amino-2-carboxyethyl]sulphanyl}-4-oxobutanoic acid-trifluoroacetic acid (1:1)] | 1.32 |  |
